IC50 data for one molecule are collected here from patent US20090175786A1.

The assay deals with gastrin releasing peptide receptor (GRP-R), human (human), P30550. Put plainly: 125I-BBN competition, PC3 cells.

By IC50 is commonly meant the concentration needed to halve the response being measured. Low readings indicate greater potency, high ones weaker potency.

As to EQRYGNQWAVGHLM (modifications not checked) [p…-NH2], the IC50 was determined as 2.2 nM.
